Measured values from ChEMBL document CHEMBL1149491, “Novel tricyclic azepine derivatives: Biological evaluation of pyrimido[4,5-b]-1,4-benzoxazepines, thiazepines, and diazepines as inhibitors of the epidermal growth factor receptor tyrosine kinase” (Bioorg Med Chem Lett, 2006).
pIC50: −log10 of the molar value.

Protein sequences, listed by entry. Tags and fused reporters are not part of them.
UniProt P00533, whole entry: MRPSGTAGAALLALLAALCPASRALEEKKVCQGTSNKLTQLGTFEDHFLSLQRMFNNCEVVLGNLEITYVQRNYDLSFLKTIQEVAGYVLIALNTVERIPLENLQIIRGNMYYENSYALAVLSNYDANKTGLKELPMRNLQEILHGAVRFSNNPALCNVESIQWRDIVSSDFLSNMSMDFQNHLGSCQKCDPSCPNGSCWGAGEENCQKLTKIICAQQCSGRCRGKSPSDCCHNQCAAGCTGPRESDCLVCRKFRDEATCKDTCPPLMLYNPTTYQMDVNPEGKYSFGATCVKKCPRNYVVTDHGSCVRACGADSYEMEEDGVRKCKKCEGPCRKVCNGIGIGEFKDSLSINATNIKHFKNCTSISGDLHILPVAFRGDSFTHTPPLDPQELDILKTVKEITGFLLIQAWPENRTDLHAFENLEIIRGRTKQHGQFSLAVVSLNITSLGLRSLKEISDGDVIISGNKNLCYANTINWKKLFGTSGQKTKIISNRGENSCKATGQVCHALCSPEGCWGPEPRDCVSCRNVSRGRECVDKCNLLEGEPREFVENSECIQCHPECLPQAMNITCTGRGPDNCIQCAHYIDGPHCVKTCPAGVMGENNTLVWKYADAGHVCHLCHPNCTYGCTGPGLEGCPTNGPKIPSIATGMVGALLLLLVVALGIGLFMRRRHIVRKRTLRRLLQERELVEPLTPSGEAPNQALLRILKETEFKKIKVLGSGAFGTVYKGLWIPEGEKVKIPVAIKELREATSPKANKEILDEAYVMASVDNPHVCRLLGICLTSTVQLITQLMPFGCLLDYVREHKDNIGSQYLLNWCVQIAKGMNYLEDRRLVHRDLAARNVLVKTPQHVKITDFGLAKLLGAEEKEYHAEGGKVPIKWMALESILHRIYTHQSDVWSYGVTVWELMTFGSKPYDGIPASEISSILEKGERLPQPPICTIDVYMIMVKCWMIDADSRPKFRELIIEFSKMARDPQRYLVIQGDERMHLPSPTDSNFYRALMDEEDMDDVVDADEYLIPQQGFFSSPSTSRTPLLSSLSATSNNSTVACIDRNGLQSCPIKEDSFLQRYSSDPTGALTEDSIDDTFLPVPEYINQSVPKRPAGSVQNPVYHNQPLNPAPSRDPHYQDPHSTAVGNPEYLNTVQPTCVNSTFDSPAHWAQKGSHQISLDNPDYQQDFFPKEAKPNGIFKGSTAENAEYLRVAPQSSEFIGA

Assays:
[1] = molecular target: T1, Epidermal growth factor receptor (Homo sapiens, UniProt P00533); assay: Inhibition of EGFR measured as pGAT-biotin peptide phosphorylation in presence of 2.0 uM ATP by HTRF assay; assay type: functional
[2] = molecular target: T1, Epidermal growth factor receptor; assay: Inhibition of EGFR autophosphorylation in DiFi cells by ELISA; assay type: functional, cell-based

With `COc1cc2c(cc1OC)Oc1ncnc(Nc3ccc(F)cc3Cl)c1NC2` as the compound, how does the pIC50 [1] read?
Its pIC50 is 5.47.

And the pIC50 [2]?
Its pIC50 is under 4.00.
